PMC11513854, “De novo GTP synthesis is a metabolic vulnerability for the interception of brain metastases” (Cell Reports Medicine, 2024)

Test system: MDR1-MDCKII cells
Experiment: Bi-directional permeability via MDR1-MDCKII cells
Assay type: in vitro ADME
Procedure: MDR1-MDCKII permeability assays were performed by Wuxi AppTec Co. Briefly, MDR1-MDCK1 cells were seeded onto polycarbonate membranes in 96-well insert system plates and allowed to develop into monolayers. […] The plate was incubated for 2.5 h (37°C, 5% CO2) and the media was sampled on either side and the compound present was quantified by LC-MS/MS and the concentrations were used to calculate the efflux ratio. Digoxin (10 μM), nadolol (2 μM), and metoprolol (2 μM) were used as controls.

SMILES: COc1c(C)c2c(c(O)c1C/C=C(\C)CCC(=O)O)C(=O)OC2 [MPA, Mycophenolic acid]
- Rank of Papp: High
- permeability for entering the brain (MDCK-MDR1 cell monolayer model): high permeability
